1 molecule from US11098063B2, “Diazabicyclic substituted imidazopyrimidines and their use for the treatment of breathing disorders” (Bayer Aktiengesellschaft, priority 2017, dated 2021) can be followed below.

Amino acid sequences for entries named in this document (tags omitted).
UniProt Q9NPC2, whole entry: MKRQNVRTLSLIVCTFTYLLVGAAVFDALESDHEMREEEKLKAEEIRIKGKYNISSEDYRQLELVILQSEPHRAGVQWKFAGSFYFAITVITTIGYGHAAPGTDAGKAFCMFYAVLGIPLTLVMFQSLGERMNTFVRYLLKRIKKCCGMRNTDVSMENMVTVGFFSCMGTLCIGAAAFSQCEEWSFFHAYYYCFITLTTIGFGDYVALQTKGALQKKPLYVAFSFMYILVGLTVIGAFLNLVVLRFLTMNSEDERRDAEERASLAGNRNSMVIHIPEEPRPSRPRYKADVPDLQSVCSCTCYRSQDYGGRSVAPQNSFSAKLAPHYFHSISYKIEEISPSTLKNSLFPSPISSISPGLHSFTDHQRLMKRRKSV
UniProt O14649, whole entry: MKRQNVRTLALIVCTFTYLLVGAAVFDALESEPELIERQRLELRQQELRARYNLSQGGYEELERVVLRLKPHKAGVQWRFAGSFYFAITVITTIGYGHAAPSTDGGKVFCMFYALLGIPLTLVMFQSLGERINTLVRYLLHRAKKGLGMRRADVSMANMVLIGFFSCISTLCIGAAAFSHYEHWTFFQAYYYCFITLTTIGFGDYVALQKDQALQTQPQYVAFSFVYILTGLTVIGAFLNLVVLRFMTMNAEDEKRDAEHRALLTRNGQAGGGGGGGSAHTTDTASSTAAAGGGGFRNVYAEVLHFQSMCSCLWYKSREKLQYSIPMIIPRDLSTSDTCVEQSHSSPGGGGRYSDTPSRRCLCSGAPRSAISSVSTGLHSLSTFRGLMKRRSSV

The term IC50 denotes the concentration that inhibits the measured activity by half.

Structures are written as SMILES.

The target of test [1] is human TASK-3 (Homo sapiens (Human), UniProt Q9NPC2). In words: Inhibition of recombinant TASK-3 in stably transfected CHO cells (voltage-sensitive dye, KCl depolarization). Type of test: cell-based. To be noted: read-out: TASK-3 IC50, depolarization by 40 mM potassium chloride.
In test [2] the target is human TASK-1 (Homo sapiens (Human), UniProt O14649). Briefly: Inhibition of recombinant TASK-1 in stably transfected CHO cells (voltage-sensitive dye, KCl depolarization). Type of test: cell-based. To be noted: read-out: TASK-1 IC50, depolarization by 40 mM potassium chloride.

In the case of `COc1ccc(F)c(C(=O)N2C3CCC2CN(C(C)c2c(-c4ccc(Cl)cc4)nc4ncccn24)C3)n1` (centres unmarked), the figures for the half-inhibitory concentration (IC50) in test [1] and in test [2] were 0.67 µM and 3.5 µM, respectively.
